Measured values as given in ChEMBL document CHEMBL6121021, “Design and Synthesis of Topoisomerases-Histone Deacetylase Dual Targeted Quinoline-Bridged Hydroxamates as Anticancer Agents” (J Med Chem, 2025).

Target: T1, Polyamine deacetylase HDAC10 (Homo sapiens, UniProt Q969S8)
T1 sequence (Q969S8 whole entry): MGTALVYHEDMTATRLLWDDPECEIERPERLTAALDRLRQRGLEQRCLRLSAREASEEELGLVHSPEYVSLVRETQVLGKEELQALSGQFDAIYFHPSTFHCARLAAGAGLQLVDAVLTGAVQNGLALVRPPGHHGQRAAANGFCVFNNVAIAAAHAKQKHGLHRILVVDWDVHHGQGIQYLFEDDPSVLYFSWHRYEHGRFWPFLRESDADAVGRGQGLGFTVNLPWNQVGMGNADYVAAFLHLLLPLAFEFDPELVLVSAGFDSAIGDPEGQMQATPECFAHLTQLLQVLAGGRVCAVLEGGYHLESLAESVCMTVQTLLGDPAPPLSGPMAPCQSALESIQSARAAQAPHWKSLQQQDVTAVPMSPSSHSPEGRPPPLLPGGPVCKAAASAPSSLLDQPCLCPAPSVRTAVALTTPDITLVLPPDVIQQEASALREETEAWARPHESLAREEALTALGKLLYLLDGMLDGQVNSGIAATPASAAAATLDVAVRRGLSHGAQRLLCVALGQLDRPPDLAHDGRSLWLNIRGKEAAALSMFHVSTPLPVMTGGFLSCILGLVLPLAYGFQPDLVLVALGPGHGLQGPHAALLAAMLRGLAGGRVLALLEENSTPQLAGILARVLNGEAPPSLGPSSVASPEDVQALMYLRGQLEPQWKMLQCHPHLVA
Experiment: Inhibition of N-terminal FLAG-tagged recombinant human HDAC10 (2 to 631 residues) extracted from baculovirus infected Sf9 cells by fluorogenic assay

Q: `O=C(CCCCCCC(=O)Nc1ccccc1)NO` [VORINOSTAT] was tested. Which IC50 did it give?
A: Its IC50 is 23.2 nM.
